Source: PubChem BioAssay AID2058 (Sanford-Burnham Center for Chemical Genomics, 2009)
Values joined by “and” are separate entries in the source; they are usually repeats but may differ in a detail not shown here. Equal values may be shown once. This is a selection; strong and weak results do not stand in their true shares. Entries with a potency or affinity are not part of this list. Active and inactive are the calls of the source.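 Rule for the calls: active = inhibition of at least 50% with at least 30 cells and total cytoplasm GFP at most 10,000,000; inconclusive = under 30 cells or total GFP of 10,000,000 plus; inactive = the rest.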

The chains behind the UniProt entries cited, without tags or fusion partners. Where a name states a change or a piece, a line headed by the entry shows the natural chain unless it says otherwise.
UniProt Q9HC97: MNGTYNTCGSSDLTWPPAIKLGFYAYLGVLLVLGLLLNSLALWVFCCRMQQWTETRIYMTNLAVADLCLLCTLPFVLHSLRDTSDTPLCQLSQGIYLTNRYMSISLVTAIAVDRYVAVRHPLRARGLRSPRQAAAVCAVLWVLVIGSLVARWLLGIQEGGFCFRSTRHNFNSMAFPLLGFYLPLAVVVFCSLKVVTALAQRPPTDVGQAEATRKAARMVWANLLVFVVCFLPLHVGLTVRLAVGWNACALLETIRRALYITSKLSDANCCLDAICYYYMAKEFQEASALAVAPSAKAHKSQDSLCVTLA

target: G-protein coupled receptor 35 (Homo sapiens) (UniProt Q9HC97); test: inhibition of zaprinast-stimulated GPR35 beta-arrestin translocation – imaging, U2OS, beta-arrestin-GFP, zaprinast agonist, primary screen (AID 2058); settings: zaprinast antagonism, at 10 µM, hits give high values

Structure (SMILES) | inhibition
CC(C)(C)C(=O)NC(Sc1ccncn1)C(Cl)(Cl)Cl (centres undefined) | inactive: -4.4%
O=[N+]([O-])c1ncn(CCn2ncnc2[N+](=O)[O-])n1 | inactive: -0.4%
O=[N+]([O-])c1cccc(NC2=NCC(CBr)S2)c1 (centres undefined) | inactive: -2.2%
O=C(O)CNc1ccc([As](=O)(O)O)cc1 | inactive: 3.3%
O=C(Nc1cc([As](=O)(O)O)ccc1O)c1ccccc1 | inactive: 8.3%
Nc1ccc([As](=O)(O)c2ccc(N)cc2)cc1 | inactive: 0.2%
C[N+]1=C2C=CC=CC=C2SC12C([N+](=O)[O-])=CC([N+](=O)[O-])=C[C-]2[N+](=O)[O-] (centres undefined) | inactive: -25.5%
CCN(/C(=N/P(=O)(N1CCOCC1)N1CCOCC1)N1CCOCC1)c1ccc(OC)cc1 | inactive: 5.7%
CC(C)=N/N=C(\N)N[N+](=O)[O-] | inactive: 14.4%
CN(C)C(=O)OCCc1n(C)cc[n+]1C | inactive: 5.6%
CC1CCN(C(=O)Oc2c(Cl)cc(Cl)c3cccnc23)CC1 | inactive: 9.8%
COc1ccc(C2=NCC(CBr)S2)cc1 (centres undefined) | inactive: 2.2%
CC(=O)N1C2C3N(C(C)=O)C1C1N(C(C)=O)C(C(N1C(C)=O)N3C(C)=O)N2C(C)=O | inactive: 2%
O=[N+]([O-])c1cccc2n[nH]nc12 | inactive: -14.7%
Cc1ccc(NP(=O)(Oc2ccccc2)Oc2ccccc2)nc1 | inactive: 10.8%
O=[N+]([O-])c1cc([N+](=O)[O-])c(CCNc2ccccc2)c([N+](=O)[O-])c1 | inactive: -17%
CCc1nc2c(n1)c1c(non1O)c1c2no[n+]1[O-] | inactive: -12.6%
Nc1cc(N)c2nonc2c1[N+](=O)[O-] | inactive: 4.5%
CC(C)CC(=O)NC(Sc1ccc(Cl)cc1)C(Cl)(Cl)Cl (centres undefined) | inactive: -1.1%
Oc1ccccc1CNc1ccccn1 | inactive: -13.3%
O=C(NC(Sc1ccncn1)C(Cl)(Cl)Cl)c1ccccc1 (centres undefined) | inactive: 3.9%
Cc1c2non([O-])c-2c(C)[n+](=O)[n+]1[O-] | inactive: 9.9%
NC(=O)c1cc([N+](=O)[O-])cc([N+](=O)[O-])c1N | inactive: -6.7%
Cc1ccc(N/C(=N/P(=O)(N2CCOCC2)N2CCOCC2)N2CCOCC2)cc1 | inactive: -13.1%
COc1ccccc1OP(=O)(Nc1ccc(C)cn1)Oc1ccccc1OC | inactive: 4.8%
Cc1ccc(OP(=O)(Nc2nccs2)Oc2ccc(C)cc2)cc1 | inactive: -14.6%

Structure (SMILES) | inhibition
CN1CCCC(OC(=O)C(c2ccccc2)c2ccccc2)C1 (centres undefined) | inactive: -3.8%
Clc1ccc(Cl)c(NC2=NCC(CBr)S2)c1 (centres undefined) | inactive: 7.5%
O=[N+]([O-])c1cc([N+](=O)[O-])c(CCN2CCOCC2)c([N+](=O)[O-])c1 | inactive: 8%
CCN(N=Nc1nonc1N)c1nonc1N | inactive: -3.1%
Nc1cccc2ccc([As](=O)(O)O)cc12 | inactive: 8.1%
CC(=O)Nc1ccc([As](=O)(O)O)cc1 | inactive: 4.5%
O=C(O)c1ccccc1[As](=O)(O)O | inactive: 12.4%
O=P(Nc1nc2ccc(Cl)cc2s1)(c1ccccc1)c1ccccc1 | inactive: -5.6%
Cc1cc(SC(NC(=O)c2ccc(F)cc2)C(Cl)(Cl)Cl)ncn1 (centres undefined) | inactive: 3.7%
CCOP(=O)(Nc1ccccc1)OCC | inactive: -3.8% and inactive: -5.3%
Cc1ccc(NP(=O)(Oc2ccccc2F)Oc2ccccc2F)nc1 | inactive: 0.4%
COC(=O)c1cc2c(s1)N=C(c1ccccc1)N(C)P2(=O)N1CCOCC1 (centres undefined) | inactive: 7.1%
CC(=O)NC(SC(=S)N(CC(C)C)CC(C)C)C(Cl)(Cl)Cl (centres undefined) | inactive: 4.2%
Cc1ccc(OP(=O)(Nc2ccccn2)Oc2ccc(C)cc2)cc1 | inactive: 4.1%
O=C(OC1CN2CCC1CC2)c1ccccc1 (centres undefined) | inactive: 14%
CCC(=O)N1C2C3N(C(=O)CC)C1C1N(C(=O)CC)C(C(N1C(=O)CC)N3C(=O)CC)N2C(=O)CC | inactive: -0.1%
Cc1ccccc1OP(=O)(Nc1ccccn1)Oc1ccccc1C | inactive: -5.1%
O=c1c2cc([N+](=O)[O-])ccc2[nH]c2c([N+](=O)[O-])cc([N+](=O)[O-])cc12 | inactive: -16%
CN(C)C(=O)Oc1noc2ccccc12 | inactive: -15%
O=C(NC1CCS(=O)(=O)C1)NP(=S)(Oc1ccccc1)Oc1ccccc1 (centres undefined) | inactive: 6%
CCNC(=S)/N=C(\N)N[N+](=O)[O-] | inactive: 15.6%
c1ccc(-c2nn[nH]n2)c(-c2nn[nH]n2)c1 | inactive: 0.2%
Cc1ccc(NP(=O)(Oc2cccc(C)c2)Oc2cccc(C)c2)nc1 | inactive: -10.6%
CCOC(=O)NC(Sc1ccccc1)C(Cl)(Cl)Cl (centres undefined) | inactive: 13.3%
CC(=O)c1ccc(N2CC2c2ccncc2)cc1 (centres undefined) | inactive: -17.4%
C[C@H]1OP(=O)(Oc2ccccc2)C[C@@H]2O[C@@H]21 (some centres undefined) | inactive: -21%

Structure (SMILES) | inhibition
C[C@@H]1C=CCP(=O)(Oc2ccccc2)O1 (some centres undefined) | inactive: -9.6%
CC(=O)Nc1ccc([As](=O)(O)O)c(O)c1 | inactive: 7.3%
CC(=O)Nc1ccc(Oc2c([N+](=O)[O-])cc([N+](=O)[O-])cc2[N+](=O)[O-])cc1 | inactive: -1.6%
O=P1(Nc2nc3ccc(Cl)cc3s2)COc2ccccc2O1 (centres undefined) | inactive: -6.7%
CCOc1ccc(C2=NCC(CBr)S2)cc1 (centres undefined) | inactive: -10.6%
CC(C)(C)C(=O)NC(Sc1ccccc1)C(Cl)(Cl)Cl (centres undefined) | inactive: -0.6%
O=P(Nc1nccs1)(c1ccccc1)c1ccccc1 | inactive: 12.1%
CC(C)C(=O)NC(Sc1ccccc1)C(Cl)(Cl)Cl (centres undefined) | inactive: -3.6%
c1nnnn1CCn1cnnn1 | inactive: -4.5%
CC(=O)NC(SC(=S)N(C)C)C(Cl)(Cl)Cl (centres undefined) | inactive: 10.4%
O=[N+]([O-])c1ncn(CCn2cnc([N+](=O)[O-])n2)n1 | inactive: 1.1%
O=[N+]([O-])c1ccc(O)c(/C=N/Nc2ccc([N+](=O)[O-])cc2[N+](=O)[O-])c1 | inactive: -22.2%
O=[As](O)(c1ccccc1)c1ccc(O)cc1 | inactive: 2.8%
C(Cc1nn[nH]n1)Cc1nn[nH]n1 | inactive: -1.1%
Nc1ccc([As](=O)(O)c2ccc([N+](=O)[O-])cc2)cc1 | inactive: -4.4%
O=C(OC1CN2CCC1CC2)c1cccc(Cl)c1 (centres undefined) | inactive: -7.9%
CN(C)C1(CNC(=O)c2ccc(Cl)c(S(N)(=O)=O)c2)CCCCC1 | inactive: 1.7%
O=P(Nc1ccccn1)(c1ccc(Br)cc1)c1ccc(Br)cc1 | inactive: -0.3%
O=P(Nc1nc2ccccc2s1)(c1ccccc1)c1ccccc1 | inactive: 7.7%
C[C@H]1OP(=O)(Oc2ccccc2)[C@H](O)[C@H](O)[C@H]1N=[N+]=[N-] (some centres undefined) | inactive: -5.2%
O=P1(Nc2ncccn2)COc2ccccc2OC1 | inactive: 7.6%
Cc1ccc(OCC(=O)OC2CN3CCC2CC3)cc1 (centres undefined) | inactive: 5.1%
O=[As](O)(c1cccs1)c1cccs1 | inactive: 8%
O=P1(Nc2ccc(Br)cn2)COc2ccccc2OC1 | inactive: 13.6%
Nc1cccc([As](=O)(O)c2ccccc2)c1 | inactive: -8%
Cc1nn(-c2ccccc2)c2c1P(=O)(N1CCOCC1)N(C)C(c1ccccc1)=N2 (centres undefined) | inactive: -14.2%

Structure (SMILES) | inhibition
Cc1ccc(C(=O)OC2CN3CCC2CC3)cc1 (centres undefined) | inactive: -5.8%
CC1CCC(C(C)C)C(OP(=O)(Nc2ccccn2)c2ccccc2)C1 (centres undefined) | inactive: 9%
O=C(/C=C/c1ccccc1)OC1CN2CCC1CC2 (centres undefined) | inactive: -2.9%
CN(C)C1(CNC(=O)c2ccc(S(C)(=O)=O)cc2)CCCCC1 | inactive: 9.2%
O=[As](O)(c1ccccc1Br)c1ccccc1Br | inactive: 1.4%
CN(C(=O)Cc1ccc(Cl)c(Cl)c1)[C@@H]1CCCC[C@H]1N1CCCC1 | inactive: -2.9%
CC(C)/C=N\N=C(\N)N[N+](=O)[O-] | inactive: 2.7%
CCOP(=O)(Nc1ccc(C)cn1)OCC | inactive: -0.6%
CCC1=CC2Cc3nc4ccc(Cl)cc4c(N)c3C(C1)C2 (centres undefined) | inactive: -6.4%
O=P1(Nc2ccccn2)COc2ccccc2OC1 | inactive: 3.3%
CCOP(=O)(NC(=NC(C)c1ccccc1)NC(C)c1ccccc1)OCC (centres undefined) | inactive: 1.1%
Clc1n[nH]nc1-c1nn[nH][15n]1 | inactive: -2.8%
CC(C)(C)C(=O)NC(Sc1ncccn1)C(Cl)(Cl)Cl (centres undefined) | inactive: -12%
CCCOP(=S)(Nc1nc(N)cc(=O)[nH]1)OCCC | inactive: 3.4%
Cc1ccc(NCCc2c([N+](=O)[O-])cc([N+](=O)[O-])cc2[N+](=O)[O-])cc1 | inactive: -15.7%
Nc1cccc2c([As](=O)(O)O)cccc12 | inactive: 14.7%
COc1cc(C2NCCC3(OCCO3)C2(C)C)cc(OC)c1OC (centres undefined) | inactive: -0.4%
CCOP(=O)(Nc1cccc2ccccc12)OCC | inactive: -2.3%
O=[As](O)(O)c1cccnc1 | inactive: -9.9%
COc1cc(C(=O)NCC2(N3CCOCC3)CCCCC2)cc(Cl)c1OC(C)C | inactive: -6.9%
CS(=O)(=O)c1ccc(Cl)c(NC(=O)COC(=O)C(O)(c2ccccc2)c2ccccc2)c1 | inactive: 1.3%
O=C(OC1CN2CCC1CC2)c1ccc(Cl)cc1 (centres undefined) | inactive: -1.6%
Cc1cccc(OCC(=O)OC2CN3CCC2CC3)c1 (centres undefined) | inactive: 12.4%
O=[As](O)(c1cccc(O)c1)c1cccc(O)c1 | inactive: -1.4%
NC(=O)Nc1ccc([As](=O)(O)O)cc1 | inactive: -12.3%
O=[N+]([O-])c1ccc2c(c1)nnn2O | inactive: 8.4%
